The numbers were not newly measured in patent US20050238739A1 (priority 2004, published 2005), which cites them from elsewhere.

The conditions of this series: after oral intake.

In the case of calcium carbonate, the intestinal absorption efficiency result is recorded as “up to 68%”.
